Measurements from US4210638A, “Antiviral composition and method of treating virus diseases” (PCR, Inc., priority 1978, dated 1980).

Tests used:
HSV-2 = assay: Antiviral activity vs HSV-2 in HEp-2 cells (plaque assay in BHK cells); type: cell-based; conditions: F3 methyl dC and F3 dT, with and without H4 U (FIG. 2)
Method: The culture medium containing the nucleoside analogs at varying concentrations are added to the infected cultures. In the case of HEp-2 cells which contain high deaminase levels, H4 U is incorporated into the medium. At 48 hours, virus is harvested from the cultures by freezing and thawing. The virus produced from each culture is titred by plaque assay in BHK cells. By using this protocol the antiviral effectiveness of F3 methyl dC can be compared directly with the effectiveness of other antiviral agents. Furthermore, by including H4 U in the medium, the effectiveness of F3 methyl dC can be determined without deamination at the nucleoside level.

HEp-2 cells = assay: Cytotoxicity vs HEp-2 cells (colony formation, % survival); conditions: F3 methyl dC and H4 U (FIG. 1)

SMILES | antiviral potency against HSV-2 (HSV-2) | enhancement of survival by H4 U (HEp-2 cells)
O=c1[nH]c(=O)n([C@H]2C[C@H](O)[C@@H](CO)O2)cc1C(F)(F)F [F3 dT, 5-trifluoromethyl-2'-deoxyuridine] | equally potent antiviral agents | –
Nc1nc(=O)n([C@H]2C[C@H](O)[C@@H](CO)O2)cc1C(F)(F)F [F3 methyl dC, 5-trifluoromethyl-2'-deoxycytidine] | equally potent antiviral agents | dramatic enhancement of survival
